The test concerns the target Protein farnesyltransferase (Homo sapiens, UniProt P49354+P49356). In words: Inhibition of farnesyl transferase. It counts as protein-complex assay.

SMILES strings stand for the structures.

For orientation: IC50 means the point on the concentration scale where inhibition reaches its midpoint. Lower therefore signals inhibition by little substance. Take `CC1(c2cccc3ccccc23)C(=O)N(CCCn2ccnc2)C(=O)N1Cc1ccc(CN)cc1` (stereo unspecified): half-maximal inhibition (IC50) was put at 2.1 µM.
